How the values were obtained:
[1] = molecular target: M3 muscarinic receptor (Rattus norvegicus, UniProt P08483); conditions: for Ki: read-out: Receptor Binding Assay Ki (nM) M3, [3H]NMS binding, rat submandibular gland
[2] = molecular target: M2 muscarinic receptor (Rattus norvegicus, UniProt P10980); test: Radioligand binding assay, [3H]-N-methylscopolamine, rat heart membranes; conditions: read-out: Receptor Binding Assay Ki (nM) M2, [3H]NMS binding

Chains of the proteins cited; added tags and fusions are not shown. Lines headed by an entry give the natural chain unless they say otherwise; changes in a name come on top.
UniProt P08483: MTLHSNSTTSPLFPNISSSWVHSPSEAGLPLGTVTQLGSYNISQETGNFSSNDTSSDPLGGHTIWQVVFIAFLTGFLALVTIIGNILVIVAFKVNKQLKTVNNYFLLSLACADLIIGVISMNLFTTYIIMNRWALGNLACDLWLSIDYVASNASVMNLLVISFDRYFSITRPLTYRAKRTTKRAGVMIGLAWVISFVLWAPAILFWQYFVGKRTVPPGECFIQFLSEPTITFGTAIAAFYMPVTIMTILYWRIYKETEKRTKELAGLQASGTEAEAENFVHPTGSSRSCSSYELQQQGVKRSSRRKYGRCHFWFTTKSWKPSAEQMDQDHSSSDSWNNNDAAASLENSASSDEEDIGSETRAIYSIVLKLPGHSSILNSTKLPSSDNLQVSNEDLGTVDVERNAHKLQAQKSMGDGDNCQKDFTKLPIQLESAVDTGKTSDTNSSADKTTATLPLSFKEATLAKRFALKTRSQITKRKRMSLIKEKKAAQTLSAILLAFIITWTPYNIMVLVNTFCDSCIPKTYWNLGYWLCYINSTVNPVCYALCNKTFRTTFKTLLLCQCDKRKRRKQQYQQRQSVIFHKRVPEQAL
UniProt P10980: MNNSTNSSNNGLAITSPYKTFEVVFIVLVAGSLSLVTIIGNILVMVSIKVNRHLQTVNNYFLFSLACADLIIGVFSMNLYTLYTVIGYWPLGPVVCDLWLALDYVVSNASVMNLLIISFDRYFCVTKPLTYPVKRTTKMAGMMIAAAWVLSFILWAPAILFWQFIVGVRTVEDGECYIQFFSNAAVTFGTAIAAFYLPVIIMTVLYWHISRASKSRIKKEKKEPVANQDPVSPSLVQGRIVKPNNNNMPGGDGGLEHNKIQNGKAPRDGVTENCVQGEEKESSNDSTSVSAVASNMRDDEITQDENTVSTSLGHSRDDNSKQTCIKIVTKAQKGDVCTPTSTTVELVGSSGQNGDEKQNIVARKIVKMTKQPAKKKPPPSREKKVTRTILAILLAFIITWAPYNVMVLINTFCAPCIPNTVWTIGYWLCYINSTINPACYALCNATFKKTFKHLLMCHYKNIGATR

Substance | Selectivity (M2/M3) ([1]; ratio of Ki M2 / Ki M3) | Ki [1] | Ki [2]
4-[(1R,5S)-3-azabicyclo[3.1.0]hex-3-yl]-but-2-ynyl-2-hydroxy-bis-[4-fluorophenyl]acetate | 1.02 | 39 nM | 40 nM
4-[(1R,5S)-3-azabicyclo[3.1.0]hex-3-yl]-but-2-ynyl-2-cyclopentyl-2-hydroxy(4-methyl phenyl)acetate |  | 16 nM | 28 nM
